Measured values: article doi:10.1101/2020.11.25.399204

Target: protein kinase A (PKA) (mouse) (UniProt P05132)

For “full length mouse PKIα (from UniProt P63248 1-76) (natural protein)”, which IC50 of inhibition of PKA kinase activity (dose-response, Z'-LYTE, cell-free) is on record?
Its IC50 of inhibition of PKA kinase activity (dose-response, Z'-LYTE, cell-free) is 0.11 nM.
